Experimental data taken from patent publication US6124354A, “Arylcycloalkane carboxylic esters, their use, pharmaceutical compositions and preparation” (dated 2000).

Amino acid sequences for entries named in this document (tags omitted). Residues count along the entry.
UniProt H0W1Z3, 1-590: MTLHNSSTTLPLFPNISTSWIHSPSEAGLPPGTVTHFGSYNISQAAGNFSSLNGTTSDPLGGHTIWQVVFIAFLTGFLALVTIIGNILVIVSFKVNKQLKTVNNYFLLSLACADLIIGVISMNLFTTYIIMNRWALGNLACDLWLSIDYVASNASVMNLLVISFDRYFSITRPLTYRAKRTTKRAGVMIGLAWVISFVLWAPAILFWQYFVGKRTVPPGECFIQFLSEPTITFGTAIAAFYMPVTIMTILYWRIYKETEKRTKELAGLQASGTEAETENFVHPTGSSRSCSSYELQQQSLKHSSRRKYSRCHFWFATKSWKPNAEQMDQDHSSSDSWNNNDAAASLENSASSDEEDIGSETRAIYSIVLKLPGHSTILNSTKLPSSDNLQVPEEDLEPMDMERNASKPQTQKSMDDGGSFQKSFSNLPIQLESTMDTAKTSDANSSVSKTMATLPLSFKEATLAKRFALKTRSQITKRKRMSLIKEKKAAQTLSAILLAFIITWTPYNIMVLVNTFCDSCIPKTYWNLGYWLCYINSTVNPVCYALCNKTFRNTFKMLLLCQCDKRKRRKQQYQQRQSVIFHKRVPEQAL

Molecular target: urinary bladder smooth muscle (muscarinic receptor) (Cavia porcellus, UniProt H0W1Z3)
Assay: Functional in vitro study: antagonism of carbachol-induced contraction of urinary bladder smooth muscle strips (KB)
Settings: Table 2; guinea pig urinary bladder, carbachol agonist, 60 min incubation

Structure (SMILES)	Kb
CC1(C)CC(C(=O)OC2CN3CCC2CC3)(c2ccccc2)C1 (centres unmarked)	0.2 nM
Cc1cccc(C2(C(=O)OC3CN4CCC3CC4)CCC2)c1 (centres unmarked)	0.8 nM
O=C(OC1CN2CCC1CC2)C1(c2cccs2)CCC1 (centres unmarked)	0.4 nM
O=C(OC1CN2CCC1CC2)C1(c2cccc([N+](=O)[O-])c2)CCC1 (centres unmarked)	28 nM
COc1cccc(C2(C(=O)OC3CN4CCC3CC4)CCC2)c1 (centres unmarked)	8.7 nM
COc1ccc(C2(C(=O)OC3CN4CCC3CC4)CCC2)cc1 (centres unmarked)	24 nM
CC1C(OC(=O)C2(c3ccccc3)CCC2)C2CCN1CC2 (centres unmarked)	0.7 nM

Same assay, conditions: Table 3; guinea pig urinary bladder, carbachol agonist, 60 min incubation

Structure (SMILES)	Kb
O=C(OC1CN2CCC1CC2)C1(c2cccs2)CCCC1 (centres unmarked)	0.7 nM
O=C(OC1CN2CCC1CC2)C1(c2ccsc2)CCCC1 (centres unmarked)	0.3 nM

Same assay, conditions: Table 4; guinea pig urinary bladder, carbachol agonist, 60 min incubation

Structure (SMILES)	Kb
COC1CCC(C(=O)OC2CN3CCC2CC3)(c2ccccc2)CC1 (centres unmarked)	2 nM
O=C(OC1CN2CCC1CC2)C1(c2ccccc2)CCCCC1 (centres unmarked)	0.4 nM
